## Antibody variant affinities, Ab-91 heavy chain, assay 2

All variants were tested on one target, the spike HR2 peptide PDVDLGDISGINAS (SARS-CoV-2).

The variants keep the light chain, the linker and the frameworks of Ab-91 (scFv order VL, a (GGGGS)3 linker, VH).
VL: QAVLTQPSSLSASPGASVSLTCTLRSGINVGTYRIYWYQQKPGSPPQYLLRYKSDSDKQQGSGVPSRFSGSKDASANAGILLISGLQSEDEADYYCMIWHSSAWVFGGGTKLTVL
VH: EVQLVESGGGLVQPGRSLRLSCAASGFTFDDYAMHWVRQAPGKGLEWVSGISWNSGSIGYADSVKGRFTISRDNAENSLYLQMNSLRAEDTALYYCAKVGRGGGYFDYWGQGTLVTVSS

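Variants in AAYL51 differ from the parent at up to three CDR positions; double and triple changes were sampled at random. Affinity was read by AlphaSeq, a pooled yeast mating assay with surface-displayed partners. Binding brings cells together so that they mate, and sequencing counts the barcode pairs among the diploids. A regression on co-assayed BCL2-family reference pairs converts the normalised counts of each replicate to an apparent Kd. There are three technical replicates.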

The parent's heavy chain CDRs are GFTFDDYAMH, GISWNSGSIGYADSVK, VGRGGGYFDY; each variant's own CDRs replace them letter for letter.
Each Kd is an estimate from the mating assay, the geometric mean of the replicates in which the pair was seen; lower is stronger.
"no signal" marks a missing value. The strain was present, yet no cells mated with the target were sequenced in any replicate, which points to weak or no binding.
Entries are sorted by rising average, undetected variants last.

CDR-H1 | CDR-H2 | CDR-H3 | Kd (apparent) | detected
GFTFDDYAMH | GISWNSGSIGYADGVK | VGRGGGNPDY | 6.4 nM | 3 of 3
GFTFDDYAMH | GISWNSGSIGYADSVK | QGRGIGYCDY | 23 nM | 3 of 3
GFTFSDYAMH | GISWNSGAIGYAKSVK | VGRGGGYFDY | 77 nM | 3 of 3
GFTFDDYQMH | GMSWNSGSIGYADSVY | VGRGGGYFDY | 140 nM | 1 of 3
GFTFDDYAMH | GISSNSGSIGYAQSVK | VGRGGGYFQY | 450 nM | 2 of 3
GFMFDDYAMH | GISWNSGSIGYAGFVK | VGRGGGYFDY | 930 nM | 1 of 3
GFTFDDYAMH | GISENSGSIGQADSVK | VGRGGGYFWY | 1.1 µM | 1 of 3
GFTFRDYAMH | GCSWNSGSIGYADSVK | VGRGGGYFDD | 1.2 µM | 3 of 3
GFTFDDYAMW | GISWFSGSIGYADSVK | VGRGPGYFDY | 1.9 µM | 1 of 3
KFTFDDNAMH | GISWNSGSIGYADSVK | VRRGGGYFDY | 2.0 µM | 1 of 3
LFTFDDYAMH | GESWNSGSIGYADSVK | VGRGGGYADY | 3.8 µM | 1 of 3
GFMFDDYAMH | GIQWNSGSIGYADSVK | VGRGGGYFNY | 5.7 µM | 1 of 3
GFTFDDYAMH | DISWNSGSIGYAQSEK | VGRGGGYFDY | 6.8 µM | 1 of 3
ETTFDDYAMT | GISWNSGSIGYADSVK | VGRGGGYFDY | 6.9 µM | 1 of 3
GFTFDDYAMH | NISWNSTSIGYADSVK | VGRVGGYFDY | 7.2 µM | 2 of 3
GFTFDDYAMH | GISWNSGSISYADSVW | VGRGGGPFDY | 9.9 µM | 1 of 3
GFTFLDYAMH | GISWNSGSIGYADSVK | VGAGGGCFDY | 11 µM | 2 of 3
GFTFDDYAMG | GISWNSCSIGYADLVK | VGRGGGYFDY | 13 µM | 1 of 3
PFTFDDYAMH | GIRWNSGSIGYADSVK | VGRGKGYFDY | 20 µM | 1 of 3
GFKFDDYAMH | GISWNSGSIGYADSVK | VGRWGGYFSY | 22 µM | 1 of 3
GFYFDDYAMH | GIRWNSGSIGYADSVK | VGVGGGYFDY | 24 µM | 2 of 3
GFTFDDYAMH | GISWQEGSIGYADSVK | VGRGGGYKDY | 24 µM | 1 of 3
GFTFDDYAMH | GISWNSGSIGYADSSC | VGRGGRYFDY | 24 µM | 2 of 3
GFTFDDYAMH | WISWNSGSIGYRDSVK | MGRGGGYFDY | 25 µM | 1 of 3
WFTFDDYAMH | AISWNSNSIGYADSVK | VGRGGGYFDY | 25 µM | 1 of 3
GFTFDDYAMH | DISWNSGSIGYPDSGK | VGRGGGYFDY | 27 µM | 2 of 3
GFTFDDYAMH | GISYNSGSICYADSVK | VGRGGGYFDY | 28 µM | 2 of 3
GFTFDDNARH | GIPWNSGSIGYADSVK | VGRGGGYFDY | 34 µM | 3 of 3
GFTFDDYAMH | GISWRSGSIFYADSVK | VGRGGGYFDY | 50 µM | 3 of 3
GGTRDDYAMH | GISWNSGSHGYADSVK | VGRGGGYFDY | 68 µM | 1 of 3
GFTFDDYAMH | GPSWNNGSIGYADSVK | VGRGGGTFDY | 69 µM | 1 of 3
GFTFDDYAMD | GISWNRGSIGYADSVK | VGRGGGYFDY | 71 µM | 1 of 3
GFTFDDYAMH | GFSWNSGSIGYDDSVK | TGRGGGYFDY | 79 µM | 1 of 3
GFTFDDYAMF | GISWNSGSIGYADSVK | QGRGGGYFVY | 80 µM | 2 of 3
GFTFDDYAMH | GISLNSGSMGYGDSVK | VGRGGGYFDY | 86 µM | 2 of 3
GFTFDDVAMH | GISWYSGSIGYADYVK | VGRGGGYFDY | 92 µM | 2 of 3
GFTFDDKAMH | GISANSGSIGYADSVK | VGRGGGYDDY | 93 µM | 3 of 3
GFIFDDYAMH | GSSRNSGSIGYADSVK | VGRGGGYFDY | 110 µM | 2 of 3
DFTFDDYAMH | GIQWNSGSYGYADSVK | VGRGGGYFDY | 140 µM | 3 of 3
GFTFDDYAMH | GISWNSGSIGYADSVY | VGRDWGYFDY | 140 µM | 1 of 3
GFTFDDYAMH | GGSWNSGSIGYADSMK | VGRGVGYFDY | 150 µM | 1 of 3
GFTFDDYAMH | GISWWSGSIGYADSVK | VGRMGGYGDY | 150 µM | 3 of 3
GFTFDDYLMH | GISWNSGSILYADSVK | VGRGGGYMDY | 180 µM | 3 of 3
GFTFDDFAMH | GISWNVGSIGYADSVK | VARGGGYFDY | 190 µM | 1 of 3
GFTFDDYAMH | GISWNEGSIGYADSVK | VGTGGIYFDY | 200 µM | 2 of 3
GFTFPDYMMH | GISWNSGSIGYADSVK | VGRGGFYFDY | 290 µM | 1 of 3
GFTFDDYAMM | GISGNSGSIGYGDSVK | VGRGGGYFDY | 290 µM | 3 of 3
GFRFDDYAMH | GISWNSGSINYADSVK | VGRGGGYFDY | 310 µM | 2 of 3
GFTFDDYAMS | GISWNSGSIGYADSVK | GGRGGGYFDY | 880 µM | 1 of 3
GRTFDDYAMH | GISWNPGSDGYADSVK | VGRGGGYFDY | 6.4 mM | 1 of 3
GFTFDDYAMH | GISWNSGSIGYADSVK | VGHGIGYFDY | no signal | 0 of 3
GFTFDDYAMH | GASWNSGSIGYADSVK | VGRGPGYYDY | no signal | 0 of 3
GFTFDDYAMH | GISWFSGSIGYADSVK | VGGGGGYFCY | no signal | 0 of 3
GFTNDIYAMH | GISWNSGSIGYADSVK | VGRGDGYFDY | no signal | 0 of 3
GFTFDDYAYH | GISWNSGSIGYADSEK | VGRGGGYFDH | no signal | 0 of 3
GFIFDDYTMH | GISWNSGSIGYADSVK | VGRGGGMFDY | no signal | 0 of 3
GFTFDDYAMH | GICWNSGSILYADSPK | VGRGGGYFDY | no signal | 0 of 3
GFTFDDYAMG | GISWNSGSIGYADSVN | VGRGFGYFDY | no signal | 0 of 3
GFTFDDYAMH | GISWNSGWFPYADSVK | VGRGGGYFDY | no signal | 0 of 3
GFTFDDYAMH | GIKWNDGSIGYADSVK | VGRAGGYFDY | no signal | 0 of 3
GFEFDDYAMH | GISWNSGSIGYLDSVK | VGRGGGYFWY | no signal | 0 of 3
GFTFDDYAMH | GISWNSGSIGYADSVK | VGRGGGYFWC | no signal | 0 of 3
GFTFDDYAMH | GISWNSWSIGYADSVK | SGRCGGYFDY | no signal | 0 of 3
GFTFDNYAMH | GISWNSGSIGYADSVK | VGYGGIYFDY | no signal | 0 of 3
GFTFDDYAMP | GISWNSGSIGYAGSVK | VGRGGGYFCY | no signal | 0 of 3
GWTFDSYAYH | GISWNSGSIGYADSVK | VGRGGGYFDY | no signal | 0 of 3
GFTFDDYAMH | GISWSSGSNGYADSVK | VGRGGGPFDY | no signal | 0 of 3
GFTFDDYAMH | GTSWNSGSIGYADSNK | VGRNGGYFDY | no signal | 0 of 3
GNTFDDYAMH | GISWNSGSIGYADSVK | VGDGGGYFDQ | no signal | 0 of 3
GFTFDDYAMH | GISWASGRIGYADSVK | RGRGGGYFDY | no signal | 0 of 3
GFTFDDYAMH | GISWNSWSIMYADSLK | VGRGGGYFDY | no signal | 0 of 3
GFTFDDYAGH | GISWYSGSIGYADSVK | HGRGGGYFDY | no signal | 0 of 3
GFTFDDYAMH | SIEWNSGSIGYADSVK | VGRGGGLFDY | no signal | 0 of 3
GFTFDYYAMF | GISCNSGSIGYADSVK | VGRGGGYFDY | no signal | 0 of 3
GFTRDDYAMH | GISWNGGSIGYADSVK | VPRGGGYFDY | no signal | 0 of 3
GFTFDDIAMH | GISWNSFSIGYADSVK | VGRPGGYFDY | no signal | 0 of 3
GFTFDDYAMH | GTSWNSTSIYYADSVK | VGRGGGYFDY | no signal | 0 of 3
GFTFDDYGMH | GIHWNSGSIGYADSVI | VGRGGGYFDY | no signal | 0 of 3

7 of these entries, quoted again:

CDR-H1,CDR-H2,CDR-H3,Kd (apparent),detected
GFTFDNYAMH,GISWNSGSIGYADSVK,VGYGGIYFDY,no signal,0 of 3
GFTFDDYAMH,GISSNSGSIGYAQSVK,VGRGGGYFQY,450 nM,2 of 3
GFTFDDYAMH,GICWNSGSILYADSPK,VGRGGGYFDY,no signal,0 of 3
GFTFDDYAMH,GIKWNDGSIGYADSVK,VGRAGGYFDY,no signal,0 of 3
GFTFDDYAMH,GISWNSGSIGYADSVK,QGRGIGYCDY,23 nM,3 of 3
GFTFDDYAMH,DISWNSGSIGYPDSGK,VGRGGGYFDY,27 µM,2 of 3
GGTRDDYAMH,GISWNSGSHGYADSVK,VGRGGGYFDY,68 µM,1 of 3

Parent in this assay: reference entry 72 nM, copy in this library 7.5 nM.
Background: pairings of library AAYL51 with three empty control strains gave a value in 21% of cases (median 34 µM, 5th percentile 1.8 µM). Values in that range, when seen in few replicates, are hard to tell from nonspecific mating.

Data: MIT Lincoln Laboratory AlphaSeq set, Engelhart et al. 2022, doi:10.1038/s41597-022-01779-4, as distributed in FLAb.